Laboratory results: patent publication US20260384421A1, “NOVEL COMPOUNDS THAT CAN BE USED AS THERAPEUTIC AGENTS” (published 2026)

How the values were obtained:
NCI-H460 cells = experiment: alamarBlue proliferation assay with NCI-H460 cells; conditions: read-out: Activity on NCI-H460: IC50, RPMI 1640 medium, 10% FBS
C2C12 cells = experiment: alamarBlue proliferation assay with C2C12 cells; conditions: read-out: Activity on C2C12: IC50; C2C12 murine myoblast cells, RPMI 1640 medium, 10% FBS
RVH-421 cells = experiment: alamarBlue proliferation assay with RVH-421 cells (glucose-free L-15 medium); conditions: read-out: Activity on RVH-421: IC50, Leibovitz's L-15 medium, 10% FBS, 0% CO2
HL-60 cells = experiment: alamarBlue proliferation assay with HL-60 cells; conditions: read-out: Activity on HL-60: IC50, RPMI 1640 medium, 10% FBS
CF21.T cells = experiment: alamarBlue proliferation assay with CF21.T cells; conditions: read-out: Activity on CF21.T: IC50; CF21.T canine cells, DMEM medium, 10% FBS
A-375 cells = experiment: alamarBlue proliferation assay with A-375 cells; conditions: read-out: Activity on A-375: IC50, DMEM medium, 10% FBS
HEP-G2 cells = experiment: alamarBlue proliferation assay with HEP-G2 cells; conditions: read-out: Activity on HEP-G2: IC50, RPMI 1640 medium, 10% FBS

| IC50 (NCI-H460 cells) | IC50 (A-375 cells) | IC50 (HEP-G2 cells) | SMILES | further results |
| --- | --- | --- | --- | --- |
|  | ≤ 200 nM |  | COC1CCC(c2ccc(Oc3ccc(C(=O)N4CCN(Cc5ccc(C(F)(F)F)cc5)CC4)cc3)c(CO)c2)CC1 (centres unmarked) | IC50 (CF21.T cells): ≤ 200 nM |
|  | ≤ 200 nM |  | COc1cc(C2CCC(OC)CC2)ccc1Oc1ccc(C(=O)N2CCN(Cc3ccc(Cl)cc3)CC2)cc1 (centres unmarked) |  |
| ≤ 200 nM | ≤ 200 nM | ≤ 200 nM | COc1ccc(CN2CCN(C(=O)c3ccc(Oc4ccc(C5CCC(OC)CC5)cc4CO)cc3)CC2)cc1 (centres unmarked) |  |
|  |  | ≤ 200 nM | COc1ccc(CN2CCN(C(=O)c3ccc(Oc4ccc(C5CCC(OC)CC5)cc4O)cn3)CC2)cc1 (centres unmarked) |  |
| ≤ 200 nM | ≤ 200 nM | ≤ 200 nM | O=C(c1ccc(Oc2ccc(C3CCC4(CC3)OCCO4)cc2CO)cc1)N1CCN(Cc2ccc(Cl)cc2)CC1 | IC50 (CF21.T cells): ≤ 200 nM; IC50 (C2C12 cells): ≤ 1000 nM; IC50 (RVH-421 cells): ≤ 200 nM; IC50 (HL-60 cells): ≤ 0.2 µM |
|  | ≤ 200 nM |  | COC1CCC(c2ccc(Oc3ccc(C(=O)N4CCN(Cc5ccc(C(F)(F)F)cc5)CC4)nc3)c(CO)c2)CC1 (centres unmarked) | IC50 (CF21.T cells): ≤ 200 nM |
|  |  | ≤ 200 nM | COCC1(COC)CCC(c2ccc(Oc3ccc(C(=O)N4CCN(Cc5ccc(Cl)cc5)CC4)cc3)c(CO)c2)CC1 | IC50 (CF21.T cells): ≤ 200 nM |
| ≤ 20000 nM |  |  | O=C(c1ccc(Oc2ccc(C3CCC4(CC3)OCCO4)cc2CO)cc1)N1CCN(Cc2cccs2)CC1 | IC50 (RVH-421 cells): ≤ 200 nM; IC50 (HL-60 cells): ≤ 5 µM |
|  | ≤ 200 nM |  | COc1ccc(CN2CCN(C(=O)c3ccc(Oc4ccc(C5CCC6(CC5)OCCO6)cc4CO)cc3)CC2)cn1 | IC50 (C2C12 cells): ≤ 1000 nM |
| ≤ 200 nM |  |  | O=C(c1ccc(Oc2ccc(C3CCC4(CC3)OCCO4)cc2CO)cc1)N1CCN(Cc2ccc3oc(=O)ccc3c2)CC1 | IC50 (C2C12 cells): ≤ 5000 nM |
| ≤ 5000 nM |  |  | O=C(c1ccc(Oc2ccc(C3CCC4(CCCO4)CC3)cc2CO)cc1)N1CCN(Cc2ccccc2)CC1 (centres unmarked) | IC50 (RVH-421 cells): ≤ 200 nM; IC50 (HL-60 cells): ≤ 5 µM |
|  | ≤ 200 nM |  | COC1CCC(c2ccc(Oc3ccc(C(=O)N4CCN(Cc5ccc6ccccc6c5)CC4)nc3)c(CO)c2)CC1 (centres unmarked) | IC50 (CF21.T cells): ≤ 1000 nM |
| ≤ 200 nM |  |  | O=C(c1ccc(Oc2ccc(C3CCC4(CC3)OCCO4)cc2CO)cc1)N1CCN(Cc2ccc([N+](=O)[O-])cc2)CC1 | IC50 (RVH-421 cells): ≤ 200 nM; IC50 (HL-60 cells): ≤ 5 µM |
|  | ≤ 200 nM | ≤ 200 nM | COC1CCC(c2ccc(Oc3ccc(C(=O)N4CCN(Cc5ccc(OC(F)(F)F)cc5)CC4)cc3)c(CO)c2)CC1 (centres unmarked) | IC50 (CF21.T cells): ≤ 200 nM |
| ≤ 200 nM |  | ≤ 200 nM | COc1ccc(CN2CCN(C(=O)c3ccc(Oc4ccc(C5CCCCC5)cc4CO)cn3)CC2)cc1 |  |
|  | ≤ 200 nM |  | COC1CCC(c2ccc(Oc3ccc(C(=O)N4CCN(Cc5ccc(C(F)(F)F)cn5)CC4)cc3)c(CO)c2)CC1 (centres unmarked) | IC50 (CF21.T cells): ≤ 200 nM |
| ≤ 200 nM |  |  | COC(=O)c1ccc(CN2CCN(C(=O)c3ccc(Oc4ccc(C5CCC6(CC5)OCCO6)cc4CO)cc3)CC2)cc1 |  |
|  | ≤ 200 nM |  | O=Cc1cc(C2CCC3(CC2)SCCCS3)ccc1Oc1ccc(C(=O)N2CCN(Cc3ccc(Cl)cc3)CC2)nc1 | IC50 (CF21.T cells): ≤ 1000 nM |
|  | ≤ 200 nM |  | COc1ccc(CN2CCN(C(=O)c3ccc(Oc4ccc(C5CCC6(CC5)SCCCS6)cc4CO)cn3)CC2)cc1 |  |
| ≤ 200 nM | ≤ 200 nM | ≤ 200 nM | COc1ccc(CN2CCN(C(=O)c3ccc(Oc4ccc(C5CCC(OC)CC5)cc4CO)cn3)CC2)cc1 (centres unmarked) |  |
|  | ≤ 200 nM |  | O=C(c1ccc(Oc2ccc(C3CCC4(CC3)SCCS4)cc2CO)cn1)N1CCN(Cc2ccc(Cl)cc2)CC1 | IC50 (CF21.T cells): ≤ 5000 nM |
|  | ≤ 200 nM | ≤ 200 nM | COC1CCC(c2ccc(Oc3ccc(C(=O)N4CCN(Cc5ccc(S(F)(F)(F)(F)F)cc5)CC4)cc3)c(CO)c2)CC1 (centres unmarked) | IC50 (CF21.T cells): ≤ 200 nM |
| ≤ 200 nM | ≤ 200 nM | ≤ 200 nM | COC1CCC(c2ccc(Oc3ccc(C(=O)N4CCN(Cc5ccc(Cl)cc5)CC4)cc3)c(CO)c2)CC1 (centres unmarked) |  |
|  | ≤ 200 nM |  | COC1CCC(c2ccc(Oc3ccc(C(=O)N4CCN(Cc5ccc(C(F)(F)F)nc5)CC4)cc3)c(CO)c2)CC1 (centres unmarked) | IC50 (CF21.T cells): ≤ 200 nM |

Further lines, the molecule ahead of its results:

| SMILES | IC50 (NCI-H460 cells) | IC50 (A-375 cells) | IC50 (HEP-G2 cells) | further results |
| --- | --- | --- | --- | --- |
| O=C(c1ccc(Oc2ccc(C3CCC4(CC3)OCCCO4)cc2CO)cc1)N1CCN(Cc2ccccc2)CC1 | ≤ 1000 nM |  |  |  |
| CS(=O)(=O)c1ccc(CN2CCN(C(=O)c3ccc(Oc4ccc(C5CCC6(CC5)OCCO6)cc4CO)cc3)CC2)cc1 |  |  |  | IC50 (C2C12 cells): ≤ 1000 nM |
| O=C(c1ccc(Oc2ccc(C3CCC4(CC3)OCCO4)cc2CO)cc1)N1CCN(Cc2ccoc2)CC1 | ≤ 5000 nM |  |  | IC50 (RVH-421 cells): ≤ 200 nM; IC50 (HL-60 cells): ≤ 5 µM |
| O=C(c1ccc(Oc2ccc(C3CCC4(CC3)OCCO4)cc2CO)cc1)N1CCN(Cc2ccc(Cl)cn2)CC1 |  |  |  | IC50 (C2C12 cells): ≤ 5000 nM |
| COC1CCC(c2ccc(Oc3ccc(C(=O)N4CCN(Cc5cnc6ccccc6c5)CC4)nc3)c(CO)c2)CC1 (centres unmarked) |  |  | ≤ 200 nM |  |
| COC1CCC(c2ccc(Oc3ccc(C(=O)N4CCN(Cc5ccc(OCC(F)(F)F)cc5)CC4)cc3)c(CO)c2)CC1 (centres unmarked) |  | ≤ 200 nM |  | IC50 (CF21.T cells): ≤ 200 nM |
| COCC1(COC)CCC(c2ccc(Oc3ccc(C(=O)N4CCN(Cc5ccc(OC)cc5)CC4)cc3)c(CO)c2)CC1 |  |  | ≤ 200 nM | IC50 (CF21.T cells): ≤ 200 nM |
| O=C(c1ccc(Oc2ccc(C3CCC4(CC3)OCCO4)cc2CO)cn1)N1CCN(Cc2ccccc2)CC1 |  |  |  | IC50 (C2C12 cells): ≤ 5000 nM |
| O=C(c1ccc(Oc2ccc(C3CCCCC3)cc2CO)cc1)N1CCN(Cc2ccc(Cl)cc2)CC1 |  |  | ≤ 200 nM |  |
| O=C(c1ccc(Oc2ccc(C3CCCCC3)cc2CO)cn1)N1CCN(Cc2ccc(OC(F)(F)F)cc2)CC1 |  |  | ≤ 200 nM |  |
| COC1CCC(c2ccc(Oc3ccc(C(=O)N4CCN(Cc5ccccc5)CC4)nc3)c(CO)c2)CC1 (centres unmarked) | ≤ 200 nM |  | ≤ 200 nM |  |
| O=C(c1ccc(Oc2ccc(C3CCC4(CC3)OCCO4)cc2CO)cc1)N1CCCN(Cc2ccc(C(F)(F)F)cc2)CC1 |  |  |  | IC50 (C2C12 cells): ≤ 200 nM |
| CN(C)C(=O)c1ccc(CN2CCN(C(=O)c3ccc(Oc4ccc(C5CCC6(CC5)OCCO6)cc4CO)cc3)CC2)cc1 | ≤ 1000 nM |  |  |  |
| O=C(c1ccc(Oc2ccc(C3CCC4(CC3)OCCO4)cc2CO)cc1)N1CCCN(Cc2ccc(Cl)cc2)CC1 |  |  |  | IC50 (C2C12 cells): ≤ 5000 nM |
| O=C(c1ccc(Oc2ccc(C3CCC4(CC3)OCCO4)cc2CO)cc1)N1CCN(Cc2ccsc2)CC1 | ≤ 20000 nM |  |  | IC50 (RVH-421 cells): ≤ 200 nM; IC50 (HL-60 cells): ≤ 5 µM |
| Cn1c(CN2CCN(C(=O)c3ccc(Oc4ccc(C5CCC6(CC5)OCCO6)cc4CO)cc3)CC2)cc2ccccc21 |  |  |  | IC50 (C2C12 cells): ≤ 1000 nM |
| O=C(c1ccc(Oc2ccc(C3CCC4(CC3)OCCO4)cc2CO)cc1)N1CCN(Cc2ccc(C(F)(F)F)cn2)CC1 |  |  |  | IC50 (C2C12 cells): ≤ 1000 nM |
| O=C(c1ccc(Oc2ccc(C3CCC4(CC3)OCCO4)cc2CO)cc1)N1CCN(Cc2ccc(O)cc2)CC1 | ≤ 200 nM |  |  | IC50 (RVH-421 cells): ≤ 200 nM; IC50 (HL-60 cells): ≤ 5 µM |
| O=C(c1ccc(Oc2ccc(C3CCC4(CC3)OCCO4)cc2CO)cc1)N1CCN(Cc2ccc(C(F)(F)F)nc2)CC1 |  | ≤ 200 nM |  | IC50 (C2C12 cells): ≤ 200 nM |
| O=C(c1ccc(Oc2ccc(C3CCCCC3)cc2CO)cc1)N1CCN(Cc2ccc(OC(F)(F)F)cc2)CC1 |  | ≤ 200 nM |  |  |
| COc1ccc(CN2CCN(C(=O)c3ccc(Oc4ccc(C5CCCCC5)cc4CO)cc3)CC2)cc1 | ≤ 200 nM |  | ≤ 200 nM |  |
| COC1CCC(c2ccc(Oc3ccc(C(=O)N4CCN(Cc5ccc(Cl)cn5)CC4)cc3)c(CO)c2)CC1 (centres unmarked) |  |  | ≤ 200 nM | IC50 (CF21.T cells): ≤ 200 nM |
| O=C(c1ccc(Oc2ccc(C3CCC4(CC3)SCCCS4)cc2CO)cn1)N1CCN(Cc2ccc(Cl)cc2)CC1 |  | ≤ 200 nM |  | IC50 (CF21.T cells): ≤ 1000 nM |
| CN(C)S(=O)(=O)c1ccc(CN2CCN(C(=O)c3ccc(Oc4ccc(C5CCC6(CC5)OCCO6)cc4CO)cc3)CC2)cc1 | ≤ 200 nM |  |  | IC50 (C2C12 cells): ≤ 200 nM |
| O=C(c1ccc(Oc2ccc(C3CCC4(CCCC4)CC3)cc2CO)cc1)N1CCN(Cc2ccccc2)CC1 |  |  | ≤ 1000 nM |  |
| O=C(c1ccc(Oc2ccc(C3CCC4(CC3)OCCO4)cc2CO)cc1)N1CCN(Cc2ccccc2Cl)CC1 |  |  |  | IC50 (C2C12 cells): ≤ 20000 nM |
| O=C(c1ccc(Oc2ccc(C3CCC4(CC3)OCCO4)cc2CO)cc1)N1CCN(Cc2ccc3ccccc3c2)CC1 | ≤ 200 nM |  | ≤ 200 nM | IC50 (RVH-421 cells): ≤ 200 nM; IC50 (HL-60 cells): ≤ 0.2 µM |
